{"source": "patent US20150342961A1", "about": "“USE OF PROSTAGLANDIN E1 (PGE1) AND MISOPROSTOL FOR TREATING CHRONIC MYELOGENOUS/MYELOID LEUKEMIA (CML)” (priority 2014, published 2015)", "tested_on": "HSCs", "assay": "Toxicity of screened drugs to HSCs"}
{"substance": "Trichostatin A", "values": [{"measurement": "toxicity to HSCs", "result": "toxic to HSCs"}]}
